Tests used:
[1] = system: sAPPβ release, SH-SY5Y cells; test: sAPPβ release assay; type: cell-based; conditions: compounds incubated 17 h, MSD detection
Description: Thaw cells and seed at a conc. of around 10000 cells/well in DMEM/F-12 with Glutamax, 10% FCS and 1% non-essential amino acids to a 384-well tissue culture treated plate, 100 μL cell susp/well. […] The cell medium was removed, followed by addition of 30 μL compound diluted in DMEM/F-12 with Glutamax, 10% FCS, 1% non-essential amino acids and 1% PeSt to a final conc. of 1% DMSO. The compounds were incubated with the cells for 17 h (overnight) at 37° C., 5% CO2. Meso Scale Discovery (MSD) plates were used for the detection of sAPPβ release. MSD sAPPβ plates were blocked in 1% BSA in Tris wash buffer (40 μL/well) for 1 h on shake at r.t. and washed 1 time in Tris wash buffer (40 μL/well). 20 μL of medium was transferred to the pre-blocked and washed MSD sAPPβ microplates, and the cell plates were further used in an ATP assay to measure cytotoxicity. The MSD plates were incubated with shaking at r.t. for 2 h and the media discarded. 10 μL detection antibody was added (1 nM) per well followed by incubation with shaking at r.t. for 2 h and then discarded. 40 μL Read Buffer was added per well and the plates were read in a SECTOR Imager.

The chains behind the UniProt entries cited, without tags or fusion partners. Residues count along the entry.
UniProt P56817, 22-460: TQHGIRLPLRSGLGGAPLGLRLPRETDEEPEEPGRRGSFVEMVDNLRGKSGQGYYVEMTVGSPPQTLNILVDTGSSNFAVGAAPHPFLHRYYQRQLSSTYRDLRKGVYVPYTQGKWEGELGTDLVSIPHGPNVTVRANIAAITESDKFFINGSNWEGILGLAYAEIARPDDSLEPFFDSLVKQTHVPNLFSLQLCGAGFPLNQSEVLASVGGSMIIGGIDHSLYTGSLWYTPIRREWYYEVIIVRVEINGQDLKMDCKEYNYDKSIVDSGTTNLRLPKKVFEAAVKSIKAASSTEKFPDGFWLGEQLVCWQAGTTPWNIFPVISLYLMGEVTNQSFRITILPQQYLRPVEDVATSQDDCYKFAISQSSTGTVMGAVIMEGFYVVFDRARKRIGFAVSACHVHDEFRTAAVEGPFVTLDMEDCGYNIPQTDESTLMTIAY

human β-Secretase [2] = target: T1, human β-Secretase (Homo sapiens (Human), UniProt P56817); test: TR-FRET assay; type: biochemical; conditions: sBACE-Fc, substrate (Europium)CEVNLDAEFK(Qsy7) 100 nM, pH4.5, 15 minutes at r.t.
Description: (§1) The β-secretase enzyme used in the TR-FRET is prepared as follows: The cDNA for the soluble part of the human β-Secretase (AA 1-AA 460) was cloned using the ASP2-Fc10-1-IRES-GFP-neoK mammalian expression vector. The gene was fused to the Fc domain of IgG1 (affinity tag) and stably cloned into HEK 293 cells.
(§2) The robotic systems Biomek FX and Velocity 11 were used for all liquid handling and the enzyme and substrate solutions were kept on ice until they were placed in the robotic system. Enzyme (9 μl) was added to the plate then 1 μl of compound in dimethylsulphoxide was added, mixed and pre-incubated for 10 minutes. Substrate (10 μl) was then added, mixed and the reaction proceeded for 15 minutes at r.t. The reaction was stopped with the addition of Stop solution (7 μl, NaAcetate, pH 9). […] The dimethylsulphoxide control, instead of test compound, defined the 100% activity level and 0% activity was defined by wells lacking enzyme (replaced with reaction buffer).

human β-Secretase [3] = target: T1, human β-Secretase; test: Diluted TR-FRET assay; type: biochemical; conditions: values marked ^a; 50 times less enzyme, 6.5 h reaction time at r.t. in the dark; read-out: IC50 in TR-FRET assay (IC50 from the diluted FRET assay)
Description: as §1
as §2, with “Substrate (10 μl) was then added, mixed and the reaction proceeded for 15 minutes at r.t.” left out

SMILES | IC50 (human β-Secretase [3]) [nM] | other results
CC1=NC2(CC(C3CCOC(C)(C)C3)Oc3ccc(-c4cccc(Cl)c4)cc32)N=C1N (racemic) [Example 50 Isomeric mixture 1, 6-(3-Chlorophenyl)-2-(2,2-dimethyltetrahydro-2H-pyran-4-yl)-5′-methylspiro[chroman-4,2′-imidazol]-4′-amine] | – | IC50 ([1]; listed as 50 Isomeric mixture 1): 597 nM
CC1=NC2(CC3(CCCOC3)Oc3ccc(-c4ccc(F)c(Cl)c4)cc32)N=C1N (single isomer, unassigned) [Example 46b Isomer 2, 6′-(3-Chloro-4-fluorophenyl)-5-methyl-5″,6″-dihydro-4′H-dispiro[imidazole-2,4′-chromene-2′,3″-pyran]-4-amine] | – | IC50 (human β-Secretase [2]): 147 nM; IC50 ([1]; listed as 46b Isomer 2): 185 nM
CO[C@H]1CC[C@]2(CC1)Cc1ccc(C#CC(C)(C)C)cc1C21N=C(C)C(N)=N1 (single isomer, unassigned; isomer 2) [Example 20h Isomer 2, (1r,4r)-6′-(3,3-dimethylbut-1-yn-1-yl)-4-methoxy-5″-methyl-3′H-dispiro[cyclohexane-1,2′-indene-1′,2″-imidazol]-4″-amine] | – | IC50 [1]: 5 nM
CC#Cc1cncc(-c2ccc3c(c2)C2(N=C(N)C(CC)=N2)[C@]2(CC[C@H](OC)CC2)C3)c1 (stereo partly drawn) [Example 67, (1r,4r)-5″-Ethyl-4-methoxy-6′-[5-(prop-1-yn-1-yl)pyridin-3-yl]-3′H-dispiro[cyclohexane-1,2′-indene-1′,2″-imidazol]-4″-amine] | 2 | –
CCC#Cc1cncc(-c2ccc3c(c2)C2(N=C(C)C(N)=N2)[C@]2(CC[C@H](OC)CC2)C3)c1 (stereo partly drawn) [Example 72, (1r,4r)-6′-[5-(But-1-yn-1-yl)pyridin-3-yl]-4-methoxy-5″-methyl-3′H-dispiro[cyclohexane-1,2′-indene-1′,2″-imidazol]-4″-amine] | 2.3 | –
COCc1cccc(-c2ccc3c(c2)C2(N=C(C)C(N)=N2)[C@]2(CC[C@H](OC)CC2)C3)c1 (stereo partly drawn) [Example 80, (1r,4r)-4-Methoxy-6′-[3-(methoxymethyl)phenyl]-5″-methyl-3′H-dispiro[cyclohexane-1,2′-indene-1′,2″-imidazol]-4″-amine] | 22 | –
CO[C@H]1CC[C@]2(CC1)Cc1ccc(-c3cc(C#N)cc(C(F)(F)F)c3)cc1[C@@]21N=C(C)C(N)=N1 [Example 85, 3-[(1r,1′R,4R)-4″-Amino-4-methoxy-5″-methyl-3′H-dispiro[cyclohexane-1,2′-indene-1′,2″-imidazol]-6′-yl]-5-(trifluoromethyl)benzonitrile] | 3.1 | –
COc1cccc(-c2ccc3c(c2)[C@@]2(N=C(C)C(N)=N2)[C@]2(CC[C@H](OC)CC2)C3)c1F [Example 89, (1r, 1′R,4R)-6′-(2-Fluoro-3-methoxyphenyl)-4-methoxy-5″-methyl-3′H-dispiro[cyclohexane-1,2′-indene-1′,2″-imidazol]-4″-amine] | 3.3 | –

Reference: patent US8865911B2, “Compounds and their use as BACE inhibitors” (Astrazeneca AB, priority 2010, dated 2014)
